Chains of the proteins cited; added tags and fusions are not shown.
UniProt Q13451, whole entry: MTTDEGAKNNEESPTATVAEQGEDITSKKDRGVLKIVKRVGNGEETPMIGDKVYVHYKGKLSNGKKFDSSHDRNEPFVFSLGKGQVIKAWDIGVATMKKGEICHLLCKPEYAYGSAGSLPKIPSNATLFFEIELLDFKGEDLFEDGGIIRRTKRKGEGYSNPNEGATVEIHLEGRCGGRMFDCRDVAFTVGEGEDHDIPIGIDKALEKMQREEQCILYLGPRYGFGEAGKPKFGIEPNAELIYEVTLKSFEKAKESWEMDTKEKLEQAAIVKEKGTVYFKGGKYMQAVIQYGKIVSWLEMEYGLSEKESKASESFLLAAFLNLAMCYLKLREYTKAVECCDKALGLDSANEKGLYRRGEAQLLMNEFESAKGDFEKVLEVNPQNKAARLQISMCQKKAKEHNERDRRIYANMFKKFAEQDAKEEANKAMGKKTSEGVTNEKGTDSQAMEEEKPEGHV

According to patent US11603377B2, “MTORC1 modulators and uses thereof” (Aeovian Pharmaceuticals, Inc., priority 2020, dated 2023):

Tests used:
mTORC1 = mTORC1 (Homo sapiens (Human), UniProt P42345+P62942); test: mTORC1 inhibition, AlphaLISA of Phospho-p70 S6 kinase (p70S6K pT389) in PC-3 cells; assay type: cell-based; conditions: read-out: mTORC1 IC50, inhibition of p70S6K pT389 levels
FKBP12 = FKBP12 (Homo sapiens (Human), UniProt P62942); test: SPR assay to determine binding affinity to FKBP12 (direct binding); conditions: read-out: FKBP12 Kd, immobilized biotinylated avi-FKBP12
[1] = target: FKBP12 / FRB ternary complex (Homo sapiens (Human), UniProt P42345+P62942); test: SPR assay to characterize ternary complex formation with FKBP12 (FRB binding to rapalog-saturated FKBP12); conditions: read-out: FKBP12 ternary complex Kd, FRB dilutions with 100 nM rapalog on immobilized FKBP12
FKBP51 = FKBP51 (Homo sapiens (Human), UniProt Q13451); test: SPR assay to determine binding affinity to FKBP51 (direct binding); conditions: read-out: FKBP51 Kd, immobilized biotinylated avi-FKBP51
[2] = target: FKBP51 / FRB ternary complex (Homo sapiens (Human), UniProt P42345+Q13451); test: SPR assay to characterize ternary complex formation with FKBP51 (FRB binding to rapalog-saturated FKBP51); conditions: read-out: FKBP51 ternary complex Kd, FRB dilutions with 100 nM rapalog on immobilized FKBP51
mTORC2 = mTORC2 (Homo sapiens (Human), UniProt P42345+P62942); test: mTORC2 inhibition, AlphaLISA of Phospho-AKT (pAKT pS473) in PC3 cells; assay type: cell-based

## CO[C@@H]1C[C@H](C[C@@H](C)[C@@H]2CC(=O)[C@H](C)/C=C(\C)[C@@H](O)[C@@H](OC)C(=O)[C@H](C)C[C@H](C)/C=C/C=C/C=C(\C)[C@@H](O[C@H]3CCOC3)C[C@@H]3CC[C@@H](C)[C@@](O)(O3)C(=O)C(=O)N3CCCC[C@H]3C(=O)O2)CC[C@H]1O
mTORC1
  IC50: > 0.8 nM
FKBP12
  Kd: < 0.3 nM
[1]
  Kd: > 800 nM
FKBP51
  Kd: > 100 nM
[2]
  Kd: > 800 nM
mTORC2
  mTORC2 % inhibition at 1 uM: A (A ≤20% inhibition at 1 micro Molar (uM))
